# CFTR F508del cor: F508del CFTR correction, initial screen, CFBE line, single point | 350,000 tested, 0.36% active | activity (quench increase), % at 7.58 µM | CFBE cells, YFP halide quenching; stimulated with forskolin plus potentiator P3; % fluorescence drop versus neutral controls;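 active means mean added fluorescence quench of at least 8% versus neutral control, with both replicates also reaching 8%; inconclusive means only one of the mean or replicate conditions met; inactive means mean below 8% and not both replicates reaching 8%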;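 further: cells transiently co-express mutant CFTR-F508del with the halide-sensitive YFP; corrector assay measuring rescue of mutant channel to the surface after 24 h compound exposure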
# UUG fidelity: alters start codon recognition fidelity in yeast; S. cerevisiae UUG-firefly luciferase reporter, luminescence/redox ratio; activity score, % at 18.7 µM; actives 0.13% (n = 350,000); AID 602363;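 active = replicate mean at a twofold rise or more, about +100% in these data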;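 also: firefly luciferase made from a UUG start codon reports start codon fidelity; reporter light over untreated wells divided by growth signal over untreated wells; some hits fall short of that in this replicate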
# PglD inh: C. jejuni PglD acetyltransferase inhibitors, primary screen, biochemical, DTNB colorimetric, single point; 360,000 tested, 0.098% active; UDP-N-acetylbacillosamine N-acetyltransferase PglD (Campylobacter jejuni); inhibition, % at 12.5 µM; purified PglD enzyme, DTNB colorimetric CoA detection; in the data active means inhibition above about 16%, passing the limit was not always enough; inconclusive means no clear call, values can overlap the other calls
# LGR2 inh: inhibitors of bursicon-induced LGR2 CRE-luciferase signal, primary screen, cell-based, HEK293, CRE-luciferase reporter, bursicon stimulation; bursicon-stimulated, 4 h; inhibition, % at 9.99 µM; 380,000 tested, 0.35% active;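 active means drop in luminescence signal, shown as inhibition above about 50% in the replicate tests, limit read from the data, passing the limit was not always enough; inconclusive means probably only some replicates passing the limit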;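 further: agonist challenge used bursicon conditioned medium at about half maximal strength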
# miR-122 sensor: miR-122 Renilla sensor signal increase in Huh7, primary screen, miR-122 inhibitor project, cell-based, single point, plate reader | Huh7 miR-122 Renilla luciferase sensor, 48 h; neutral wells = 0, positive control = 100 | activation (reporter increase), % at 12.5 µM | 340,000 tested, 0.3% active | AID 602342, 2012;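 active means mean replicate activation score at least 90 and every replicate individually at or above 90; inconclusive means only one of the two criteria met; inactive means neither criterion met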;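 further: higher luciferase means less miR-122 activity so hits act as miR-122 inhibitors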
# EWS-Fli block: EWS/Fli-driven NR0B1 reporter inhibitors, primary screen, A673 cells, NR0B1 luciferase, luminescence, MLPCN library; 350,000 tested, 0.67% active; inhibition, % at 12.6 µM; viability-normalised; AID 651661, 2012;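 active means mean inhibition of at least 50% after viability correction, with every replicate also passing that limit; inconclusive means mean reaches 50% but only one of two replicates passes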;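 further: firefly luciferase signal divided by Alamar Blue viability fluorescence both relative to DMSO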
# The depositor's hits bear a star; ? = inconclusive; . = no result; [ ] = remark or other dose. The list is not random: actives were taken first. Their share in the collection is about 1.3%.
SMILES,CFTR F508del cor,UUG fidelity,PglD inh,LGR2 inh,miR-122 sensor,EWS-Fli block
CC1=C(C(=O)Nc2ccc(C)cc2)C(c2ccc(C)o2)C2=C(CC(C)(C)CC2=O)N1 (configuration not stated),.,-8,0,.,2,.
CCN(CC)CCCNc1nc2ccccc2c2[nH]c3ccc(OC)cc3c12,17*,.,.,22,.,?
CCN(CC)CCCNc1nc(-c2ccccc2)nc2ccccc12,.,-8,3,.,3,.
CCN(C(=O)CCN1C(=O)/C(=C/c2ccccc2)SC1=S)C1CCS(=O)(=O)C1 (configuration not stated),6,-19,-3,59*,8,-6
CC1=NN(C(N)=S)C(=O)C1N=Nc1cccc(C(=O)O)c1 (configuration not stated),.,-22,-7,61*,-3,32
CC1=NN(C(N)=S)C(=O)C1N=Nc1cccc(C)c1 (configuration not stated),2,-18,-2,-27,-4,-43
CCOc1ccc(OCC)c(NC(=O)CN2CCC(NC(=O)c3cccc(F)c3)CC2)c1,.,0,-1,.,-10,.
COc1cc(OC)cc(C(=O)OCC(=O)NC(c2ccccc2)c2ccccc2)c1,8.2*,1,-4,-10,4,4
C[C@H]1CN([C@@H](C)CO)C(=O)c2ccccc2-c2ccccc2CO[C@H]1CN(C)Cc1ccccc1,-2,6,3,-14,.,-10
COc1ccc(-c2cc3c(nn2)-c2ccccc2C3=O)cc1,4,-62,4,94*,-8,40
O=C1c2ccccc2-c2nnc(-c3ccccc3)cc21,.,-41,1,.,5,.
Cc1nc(NCc2ccco2)c2c(C)c(C)sc2n1,.,-8,-5,.,129*,.
Cc1sc2nc3c4ccccc4c(NCc4ccco4)nn3c(=O)c2c1C,.,-9,4,.,1,.
COc1cc(N2C(=O)C=CC2=O)ccc1N1C(=O)C=CC1=O,-3,.,.,.,10,60*
COc1ccc(N2C(=O)C3CC(C)=C(C)CC3C2=O)c(OC)c1 (configuration not stated),.,-5,4,.,0,.
COc1ccc2[nH]c(C)cc(=O)c2c1,.,-3,-4,.,.,.
COc1ccc2[nH]c3c(C)c4ccncc4c(C)c3c2c1,16*,17,-9,.,-20,59*
C[C@H]1CN([C@@H](C)CO)C(=O)c2c(c3ccccc3n2C)-c2ccccc2CO[C@@H]1CN(C)Cc1ccc2c(c1)OCO2,2,.,.,7,.,2
CC(C)(C)c1ccc(NC(=S)NCCc2ccccn2)cc1,-2,.,.,-9,.,-11
FC(F)(F)c1cccc(NC(=S)NCCc2ccccn2)c1,.,-7,1,.,249*,.
NC(=O)N=Nc1c2[nH]c3ccccc3nc-2c2ccccc12,22*,-12,4,13,-5,11
O=c1[nH]c2ccccc2nc1-c1ccccc1,0,-20,1,-29,5,-52
CCC(=O)Nc1ccc(C=C(C(C)=O)C(C)=O)cc1,4,-5,-5,20,-14,10
CCC(=O)Nc1ccc(/C=C(\C(C)=O)C(=O)c2ccccc2)cc1,-4,.,.,52*,.,3
O=C1c2cccnc2C(O)N1Cc1ccco1 (configuration not stated),.,-15,-4,.,-4,.

# Rewritten with two lines to a compound: part of the list above.
# Fields – CFTR F508del cor | UUG fidelity | PglD inh | LGR2 inh | miR-122 sensor | EWS-Fli block
CC(C)(C)c1ccc(NC(=S)NCCc2ccccn2)cc1
→ -2 | . | . | -9 | . | -11
Cc1sc2nc3c4ccccc4c(NCc4ccco4)nn3c(=O)c2c1C
→ . | -9 | 4 | . | 1 | .
CCN(CC)CCCNc1nc(-c2ccccc2)nc2ccccc12
→ . | -8 | 3 | . | 3 | .
O=c1[nH]c2ccccc2nc1-c1ccccc1
→ 0 | -20 | 1 | -29 | 5 | -52

# Full records from above. Order of values: CFTR F508del cor, UUG fidelity, PglD inh, LGR2 inh, miR-122 sensor, EWS-Fli block
# Shown for `COc1ccc2[nH]c(C)cc(=O)c2c1` → ., -3, -4, ., ., .
# Shown for `CC1=C(C(=O)Nc2ccc(C)cc2)C(c2ccc(C)o2)C2=C(CC(C)(C)CC2=O)N1` (configuration not stated) → ., -8, 0, ., 2, .

# Later entries
SMILES,CFTR F508del cor,UUG fidelity,PglD inh,LGR2 inh,miR-122 sensor,EWS-Fli block
C[C@@H]1CN([C@@H](C)CO)C(=O)Cc2cc(NS(=O)(=O)c3ccc(F)cc3)ccc2O[C@@H]1CN(C)Cc1ccc(C(=O)Nc2ccccc2N)cc1,2,0,0,-33,9[16.7 µM],24
C[C@H]1CN([C@@H](C)CO)C(=O)Cc2cc(NS(=O)(=O)c3ccc(F)cc3)ccc2O[C@H]1CN(C)Cc1ccc(C(=O)Nc2ccccc2N)cc1,1,8,0,-39,114*[16.7 µM],35
Cc1ccc(S(=O)(=O)Nc2ccc3c(c2)CC(=O)N([C@H](C)CO)C[C@H](C)[C@H](CN(C)Cc2ccc(C(=O)Nc4ccccc4N)cc2)O3)cc1,0,6,2,-14,229*[16.7 µM],45
O=C(Nc1ccc(F)cc1)N1C[C@@H]2[C@H](c3ccccc31)[C@@H](CO)N2C(=O)c1ccccn1,-1,41,1,-22,20[16.7 µM],-4
CNC(=O)CSc1nnc(COc2ccc([N+](=O)[O-])cc2)n1C,0,-12,-4,27,2,1
CCOCCCNC(=O)/C(C#N)=C/c1cc(OC)c(O)c([N+](=O)[O-])c1,3,.,.,34,.,1
CCOCCCNC(=O)/C(C#N)=C/c1ccc(Cl)c([N+](=O)[O-])c1,0,-4,-9,90*,3,65*
O=S(=O)(c1ccccc1)c1cc(O)ccc1O,-3,-13,6,10,221*,7
O=S(=O)(c1ccc(Cl)cc1)c1cc(O)ccc1O,-4,-16,.,7,.,41
N#CCC(=O)N/N=C/c1cn(Cc2cccc3ccccc23)c2ccccc12,11*,-18,5,-10,-6,53*
N#CCC(=O)N/N=C/c1cn(Cc2ccccc2C#N)c2ccccc12,4,-10,5,10,-1,5
Cc1cccc(NC(=S)NCc2ccc(F)cc2)c1,.,-14,-1,-9,17,-25
Cc1ccc(NC(=S)NCc2ccc(F)cc2)cc1,0,-30,9,-21,106*,-4
Nc1ccccc1C(=O)N1O[C@@H]2C=C[C@H]1C2,8.6*,-21,7,-15,-5,0
O=C(c1cc2ccccc2[nH]1)N1O[C@@H]2C=C[C@H]1C2,0,-27,4,-60,8,-32
Cc1cc2c([nH]c3ccccc32)c(C)n1,1,-18,-2,-7,-5,4
Cc1c2ccncc2cc2c1[nH]c1ccccc12,12*,12,7,-3,2,4
CCN1C(=O)c2cccc3c(S(=O)(=O)N(C(C)=O)c4ccc(OC(C)=O)cc4)ccc1c23,16*,12,-1,-1,75,28
CCN1C(=O)c2cccc3c(S(=O)(=O)N4CCC(C)CC4)ccc1c23,4,12,-1,-11,-2,28
COc1ccc(N(C(=O)c2ccncc2)S(=O)(=O)c2ccc3c4c(cccc24)C(=O)N3C)cc1,.,.,.,72*,?,2
CCN1C(=O)c2cccc3c(S(=O)(=O)NCCc4c[nH]c5ccccc45)ccc1c23,.,-11,9,.,498*,.
COc1ccc(N(CC(=O)NCc2ccco2)S(=O)(=O)c2ccc(OC)c(OC)c2)cc1,.,3,-4,.,4,.

# Screens (PubChem BioAssay)
